Measurements reported in BindingDB's records for doi:10.1074/jbc.M111.274068 (Astrazeneca, 2011).

By UniProt entry, the sequences of proteins in these tests, tags left out. Where a name states a change or a piece, a line headed by the entry shows the natural chain unless it says otherwise.
UniProt P0ACC7: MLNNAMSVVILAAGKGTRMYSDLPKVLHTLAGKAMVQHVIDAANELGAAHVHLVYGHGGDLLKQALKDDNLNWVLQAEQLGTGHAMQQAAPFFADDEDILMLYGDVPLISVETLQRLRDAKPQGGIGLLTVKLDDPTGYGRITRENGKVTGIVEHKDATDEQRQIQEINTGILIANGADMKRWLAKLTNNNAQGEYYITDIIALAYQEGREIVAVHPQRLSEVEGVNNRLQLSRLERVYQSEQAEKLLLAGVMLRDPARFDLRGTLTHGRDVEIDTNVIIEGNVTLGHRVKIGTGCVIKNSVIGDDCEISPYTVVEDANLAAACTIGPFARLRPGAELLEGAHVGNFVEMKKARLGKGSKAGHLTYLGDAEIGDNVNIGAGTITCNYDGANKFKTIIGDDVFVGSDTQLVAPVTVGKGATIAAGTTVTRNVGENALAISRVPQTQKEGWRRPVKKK

Biological target: Bifunctional protein GlmU (Escherichia coli (strain K12), UniProt P0ACC7)
Test: Inhibition Assay
Details: pH 7.35
From the text: Inhibition assay using GlmU bifuncation enzyme with various bacterial strains.

- IC50: 18 nM
Structure (SMILES): COc1cc(OC)c(S(=O)(=O)N(c2ccccc2)c2ccc(N)cc2)cc1NC(=O)CCC(=O)O [Sulfonamide, 3]
